Measured values as given in patent US12110507B2, “Method for preparing functional hepatic progenitor cells or hepatic cells, or functional small intestinal epithelial progenitor cells or small intestinal epithelial cells” (priority 2017, dated 2024).

Tested on: hepatic progenitor cells differentiated from SEES5 cells
Experiment: culture of hepatic progenitor cells differentiated from SEES5 cells in the presence of an antibiotic (selection)
Type: cell-based, human
Conditions: conditions of Table 6; data not shown

phleomycin
CYP3A4 expression of the cells selected with antibiotic: markedly high level
